According to patent US20250197870A1, “RECOMBINANT E. COLI STRAIN PRODUCING 1,3-BUTANEDIOL FROM GLUCOSE AND METHOD FOR PRODUCING 1,3-BUTANEDIOL USING SAME” (ActivON Co.,Ltd., priority 2022, published 2025):

Tested on: growth of strains

CC(O)CC=O (centres unmarked) [Strain 3-HBA, 3-hydroxybutyraldehyde]
concentration exhibiting high toxicity to cell growth (FIG. 9): ~6000 µM
toxicity compared with other aldehydes (in words) (versus acetaldehyde and propionaldehyde): more toxic than other aldehydes
